How the values were obtained:
Format in all cases: cell-based
Conditions in all cases: BaF3
[1] = target: Fibroblast growth factor receptor 1 (Mus musculus) (UniProt P16092); test: Inhibition of FGFR1 phosphorylation at Tyr653/654 residues in mouse Ba/F3 cells transfected with TEL-fused FGFR1 by Western blotting analysis
[2] = target: Fibroblast growth factor receptor 3 (Mus musculus) (UniProt Q61851); test: Inhibition of FGFR3 phosphorylation at Tyr653/654 residues in mouse Ba/F3 cells transfected with TEL-fused FGFR3 by Western blotting analysis
[3] = target: Fibroblast growth factor receptor 2 (Mus musculus) (UniProt P21803); test: Inhibition of FGFR2 phosphorylation at Tyr653/654 residues in mouse Ba/F3 cells transfected with TEL-fused FGFR2 by Western blotting analysis
[4] = target: Fibroblast growth factor receptor 3 (Mus musculus) (UniProt Q61851); test: Inhibition of FGFR3 in mouse Ba/F3 cells transfected with TEL-fused FGFR3 assessed as reduction in ERK1/2 phosphorylation at Thr202/Tyr204 residues by Western blotting analysis
[5] = target: Fibroblast growth factor receptor 1 (Mus musculus) (UniProt P16092); test: Inhibition of FGFR1 in mouse Ba/F3 cells transfected with TEL-fused FGFR1 assessed as reduction in ERK1/2 phosphorylation at Thr202/Tyr204 residues by Western blotting analysis
[6] = target: Fibroblast growth factor receptor 2 (Mus musculus) (UniProt P21803); test: Inhibition of FGFR2 in mouse Ba/F3 cells transfected with TEL-fused FGFR2 assessed as reduction in ERK1/2 phosphorylation at Thr202/Tyr204 residues by Western blotting analysis

Chains of the proteins cited; added tags and fusions are not shown.
UniProt P16092, whole entry: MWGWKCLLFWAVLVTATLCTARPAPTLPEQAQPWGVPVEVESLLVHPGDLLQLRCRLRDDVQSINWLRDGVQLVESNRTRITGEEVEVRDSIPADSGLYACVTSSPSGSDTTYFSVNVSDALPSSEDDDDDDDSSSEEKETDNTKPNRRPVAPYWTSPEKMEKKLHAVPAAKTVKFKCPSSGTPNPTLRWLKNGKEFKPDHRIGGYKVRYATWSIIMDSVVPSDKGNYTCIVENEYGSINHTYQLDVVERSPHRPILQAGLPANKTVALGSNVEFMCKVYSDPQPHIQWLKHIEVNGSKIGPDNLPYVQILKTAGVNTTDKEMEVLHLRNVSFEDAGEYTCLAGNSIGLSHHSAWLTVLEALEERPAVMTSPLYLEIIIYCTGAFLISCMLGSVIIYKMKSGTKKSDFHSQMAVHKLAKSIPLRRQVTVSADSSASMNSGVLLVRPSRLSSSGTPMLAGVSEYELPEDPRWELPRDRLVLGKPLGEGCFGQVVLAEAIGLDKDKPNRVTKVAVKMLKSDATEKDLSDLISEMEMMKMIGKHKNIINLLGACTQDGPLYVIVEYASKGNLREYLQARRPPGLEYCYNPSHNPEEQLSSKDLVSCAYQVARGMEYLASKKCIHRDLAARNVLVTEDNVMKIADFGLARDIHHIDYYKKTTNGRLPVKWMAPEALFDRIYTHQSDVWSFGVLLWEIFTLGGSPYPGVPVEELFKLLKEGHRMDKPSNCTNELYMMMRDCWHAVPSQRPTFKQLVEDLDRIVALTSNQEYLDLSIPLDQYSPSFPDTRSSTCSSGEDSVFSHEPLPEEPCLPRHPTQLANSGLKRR
UniProt Q61851, whole entry, looked up: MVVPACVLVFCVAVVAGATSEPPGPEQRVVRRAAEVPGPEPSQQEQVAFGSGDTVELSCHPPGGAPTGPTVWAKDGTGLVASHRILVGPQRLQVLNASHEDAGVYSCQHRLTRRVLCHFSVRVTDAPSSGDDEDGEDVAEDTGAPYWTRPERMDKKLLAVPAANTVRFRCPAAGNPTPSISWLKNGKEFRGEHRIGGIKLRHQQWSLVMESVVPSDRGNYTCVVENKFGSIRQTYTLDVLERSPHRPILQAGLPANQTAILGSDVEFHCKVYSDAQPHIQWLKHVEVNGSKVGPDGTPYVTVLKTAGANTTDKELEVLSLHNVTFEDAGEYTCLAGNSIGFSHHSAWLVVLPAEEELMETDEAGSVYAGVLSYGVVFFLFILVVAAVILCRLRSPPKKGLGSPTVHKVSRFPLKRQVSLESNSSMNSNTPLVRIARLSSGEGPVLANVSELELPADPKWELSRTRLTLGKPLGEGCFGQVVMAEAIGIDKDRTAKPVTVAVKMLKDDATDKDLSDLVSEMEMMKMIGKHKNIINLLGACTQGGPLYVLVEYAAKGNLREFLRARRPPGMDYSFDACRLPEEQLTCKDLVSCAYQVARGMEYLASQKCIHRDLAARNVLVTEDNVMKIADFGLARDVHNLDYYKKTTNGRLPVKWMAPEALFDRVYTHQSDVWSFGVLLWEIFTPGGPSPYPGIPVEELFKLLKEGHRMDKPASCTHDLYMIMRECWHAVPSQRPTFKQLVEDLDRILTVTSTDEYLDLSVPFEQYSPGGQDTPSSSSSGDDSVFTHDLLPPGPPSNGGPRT
UniProt P21803, whole entry: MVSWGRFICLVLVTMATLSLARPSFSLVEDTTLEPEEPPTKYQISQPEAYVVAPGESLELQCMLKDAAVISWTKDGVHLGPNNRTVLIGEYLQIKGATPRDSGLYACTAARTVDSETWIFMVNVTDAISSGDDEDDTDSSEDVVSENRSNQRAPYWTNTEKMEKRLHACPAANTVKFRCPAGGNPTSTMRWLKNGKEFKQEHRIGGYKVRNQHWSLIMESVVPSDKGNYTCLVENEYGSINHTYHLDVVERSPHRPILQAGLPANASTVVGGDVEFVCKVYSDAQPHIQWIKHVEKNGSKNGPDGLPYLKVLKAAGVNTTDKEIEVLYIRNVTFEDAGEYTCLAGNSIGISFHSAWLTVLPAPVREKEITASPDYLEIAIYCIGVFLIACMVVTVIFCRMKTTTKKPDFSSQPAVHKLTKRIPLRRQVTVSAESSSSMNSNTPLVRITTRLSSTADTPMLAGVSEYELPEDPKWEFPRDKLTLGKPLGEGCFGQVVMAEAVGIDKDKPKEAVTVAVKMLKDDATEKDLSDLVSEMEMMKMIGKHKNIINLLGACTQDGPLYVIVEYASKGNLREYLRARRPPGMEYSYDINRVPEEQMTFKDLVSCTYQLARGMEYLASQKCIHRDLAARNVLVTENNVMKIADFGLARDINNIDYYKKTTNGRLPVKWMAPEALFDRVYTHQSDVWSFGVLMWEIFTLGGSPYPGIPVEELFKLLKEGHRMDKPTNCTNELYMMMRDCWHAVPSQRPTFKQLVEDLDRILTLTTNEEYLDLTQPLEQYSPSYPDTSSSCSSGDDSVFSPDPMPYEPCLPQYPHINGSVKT

- inhibition [1]: Dose-Dependent Effect
- inhibition [2]: Dose-Dependent Effect
- inhibition [3]: Dose-Dependent Effect
- inhibition [4]: Dose-Dependent Effect
- inhibition [5]: Dose-Dependent Effect
- inhibition [6]: Dose-Dependent Effect
Compound: Nc1ncc(-c2ccc(CN3CCS(=O)(=O)CC3)cc2)nc1C(=O)Nc1cc(O)cc(O)c1
